Measured values: publication PMC4357715, “The beta hairpin structure within ribosomal protein S5 mediates interplay between domains II and IV and regulates HCV IRES function” (Nucleic Acids Research, 2015)

Test system: S5M1 peptide
Assay: filter binding

Substance: HCV IRES 18-383 WT
- pKd: 5.25

pKd: −log10 of the molar value.
